Measurements published in patent US20250163076A1, “SYNTHESIS OF BRUTON'S TYROSINE KINASE INHIBITORS” (JANSSEN PHARMACEUTICA NV, priority 2022, published 2025).

Amino acid sequences for entries named in this document (tags omitted). A change or cut given only in a name is not applied to a line headed by its entry.
UniProt Q06187: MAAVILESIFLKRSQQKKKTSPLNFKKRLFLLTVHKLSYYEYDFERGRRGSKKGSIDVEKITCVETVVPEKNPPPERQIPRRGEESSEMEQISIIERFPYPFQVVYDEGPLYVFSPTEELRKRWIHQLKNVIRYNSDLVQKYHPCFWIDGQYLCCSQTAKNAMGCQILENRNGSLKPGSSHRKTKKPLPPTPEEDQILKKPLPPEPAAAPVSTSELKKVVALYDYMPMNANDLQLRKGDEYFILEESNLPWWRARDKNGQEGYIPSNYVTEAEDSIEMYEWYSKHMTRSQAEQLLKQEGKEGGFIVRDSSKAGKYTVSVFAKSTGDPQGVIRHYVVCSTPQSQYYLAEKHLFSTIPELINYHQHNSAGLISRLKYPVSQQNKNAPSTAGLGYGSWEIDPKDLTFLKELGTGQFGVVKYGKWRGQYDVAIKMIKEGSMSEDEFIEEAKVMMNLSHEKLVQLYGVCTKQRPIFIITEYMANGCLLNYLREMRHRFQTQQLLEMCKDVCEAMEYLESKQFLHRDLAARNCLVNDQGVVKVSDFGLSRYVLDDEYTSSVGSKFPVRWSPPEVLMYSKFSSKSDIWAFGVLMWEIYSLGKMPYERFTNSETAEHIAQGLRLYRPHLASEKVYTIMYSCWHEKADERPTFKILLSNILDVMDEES

Target: BTK (Homo sapiens, UniProt Q06187)
Test: BTK covalent inhibition kinetics (KI, kinact, kinact/KI)
Type: biochemical
Conditions: Table 3
Description: Initial structure-activity relationships for a new series of BTK inhibitors exemplified by Compound A (Table 3) have been previously conducted, (Tichenor, et al., ACS Med. Chem. Lett. 2021, 12, 782-790) with an acrylamide electrophile designed to engage in a covalent bond with Cys481. […] Therefore, subsequent optimization of Compound A focused on increasing aqueous solubility and oral bioavailability from solid formulations suitable for preclinical tolerability assessment and advancement into human clinical trials. The development of the structure-activity relationship was conducted by characterizing the non-covalent affinity of each inhibitor for BTK (KI) and the first order rate constant for irreversible covalent bond formation (kinact). The second order rate constant kinact/KI ratio is used to assess the covalent inhibitor potency because it is independent of incubation time and substrate concentrations (Copeland, R. A. Evaluation of Enzyme Inhibitors in Drug Discovery: a Guide for Medicinal Chemists and Pharmacologists; 2nd ed.; Wiley: Hoboken, N.J., 2013).

kinact/KI: 15900 M⁻¹ s⁻¹
kinact (average of two independent determinations (±SD)): 0.000346 ± 2.5e-05 s⁻¹
SMILES: C=CC(=O)N1CC[C@@H](NC(=O)c2sc3nccc4c3c2NC(=O)N4c2ccc(Oc3ccccc3)cc2C)C1 [Compound A]
